Results on one compound are retold here after patent publication US11780821B2, “Inhibitors of fibroblast activation protein” (Praxis Biotech LLC, priority 2017, dated 2023).

Amino acid sequences for entries named in this document (tags omitted). A change or cut given only in a name is not applied to a line headed by its entry.
UniProt P28843: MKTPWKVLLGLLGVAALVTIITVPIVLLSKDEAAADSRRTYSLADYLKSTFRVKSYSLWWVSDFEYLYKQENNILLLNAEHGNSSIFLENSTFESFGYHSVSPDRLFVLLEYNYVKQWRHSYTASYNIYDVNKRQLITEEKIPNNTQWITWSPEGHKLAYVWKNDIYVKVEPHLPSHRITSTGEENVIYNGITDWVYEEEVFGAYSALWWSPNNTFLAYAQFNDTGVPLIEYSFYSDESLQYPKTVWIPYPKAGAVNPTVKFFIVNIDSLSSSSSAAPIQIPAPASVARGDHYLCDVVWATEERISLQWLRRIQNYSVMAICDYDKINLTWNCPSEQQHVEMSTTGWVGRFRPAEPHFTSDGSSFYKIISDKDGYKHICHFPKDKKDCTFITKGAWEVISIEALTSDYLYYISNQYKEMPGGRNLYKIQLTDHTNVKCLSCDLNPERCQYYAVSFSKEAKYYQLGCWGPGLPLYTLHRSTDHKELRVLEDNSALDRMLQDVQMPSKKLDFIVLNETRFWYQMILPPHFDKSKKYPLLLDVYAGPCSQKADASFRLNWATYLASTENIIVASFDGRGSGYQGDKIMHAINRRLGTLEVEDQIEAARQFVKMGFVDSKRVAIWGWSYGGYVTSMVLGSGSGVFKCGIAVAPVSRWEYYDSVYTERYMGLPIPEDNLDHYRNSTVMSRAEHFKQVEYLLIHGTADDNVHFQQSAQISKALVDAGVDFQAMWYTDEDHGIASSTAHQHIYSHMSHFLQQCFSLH

For orientation: IC50 means the concentration that inhibits the measured activity by half.

The assay concerns the target T1, recombinant mouse DPPIV (rmDPPIV) (Mus musculus, UniProt P28843).
T1 construct: purchased R&S system (so in the source)
In words: DPPIV enzymatic activity assay. In kind it is biochemical. The protocol:
To assay baseline dipeptidyl peptidase-4 (DPPIV) activity, 40 ng of recombinant human DPPIV (rhDPPIV) (R&S system, #1180-SE) or 40 ng of recombinant mouse DPPIV (rmDPPIV) (R&S system, #954-SE) was incubated with 400 μM of H-Gly-Pro-pNA substrate (BACHEM, #L-1880) in a DPPIV assay buffer (25 mM Tris, pH 8.3) for 30 min at 37° C. protected from the light in 96-well black plates (Nunc, #237108). To assay DPPIV inhibition by test compounds, test compounds were pre-incubated with the enzyme for 15 min at 37° C. before starting the reaction by substrate addition in 96-well black plates (Nunc, #237108). Para-nitroaniline (pNA) release was detected by measuring absorbance at 405 nm using a Multifunction Microplate Reader (Synergy 4, Biotek). All measurements were carried out in triplicate.

For the compound `CC(C)[C@H](N)C(=O)N1CCC[C@H]1B(O)O` [Val-boroPro], the IC50 is under 1 µM.
